Assay results published in patent publication US20240423942A1, “PHARMACEUTICAL COMPOSITION INCLUDING RETINOIC ACID AND CARBOHYDRATE AND USE THEREOF” (Mastery Biotech CO., LTD., priority 2022, published 2024).

Molecular target: SARS-COV-2 PLpro (Severe acute respiratory syndrome coronavirus 2, UniProt P0DTD1)
Assay: biochemical
Conditions: read-out: Inhibition percentage (%)
Procedure: The enzymatic activity of SARS-COV-2 PLpro obtained above was measured by a colorimetry-based peptide cleavage assay, using the 6-mer peptide substrate, FRLKGG-para-nitroanilide (FG6-pNA) (purity 97% by HPLC; GL Biochem Ltd., Shanghai, China). In the cleavage assay, the 6-mer peptide substrate was cleaved at the Gly-pNA bond to release free pNA, which turned the color of the solution to yellow. The enzymatic activity was determined by continuously monitoring the absorbance at 405 nm (A405) using a 96-well microplate spectrophotometer (Epoch™ 2, Biotek) at 30° C.
An enzyme inhibition assay was performed in a 96-well microplate. […]
20 μL of FG6-pNA (1.2 mM) described above was added into the test mixture of the respective group to initiate the enzyme reaction. […] The enzymatic activity was determined by continuously monitoring the absorbance at 405 nm (A405) using a 96-well microplate spectrophotometer (Epoch™ 2, Biotek). The reaction rate was calculated accordingly, wherein the reaction rate is the slope of the absorbance A405 versus time (seconds) for a total reaction time of 300 seconds.
The inhibition percentage was calculated using the following equation: […]
20 μL of FG6-pNA (1.2 mM) described above was added into the test mixture of the respective group to initiate the enzyme reaction. […] The inhibition percentage was calculated as described in Example 3.

## CC1=C(/C=C/C(C)=C/C=C/C(C)=C\C(=O)O)C(C)(C)CCC1 [isotretinoin, 13-cis-retinoic acid, reference compound]
  inhibition at 50 µM: 20.9 ± 1.24%
